Data taken from patent publication US10167295B2 (priority 2013, dated 2019).

Amino acid sequences for entries named in this document (tags omitted). A change or cut given only in a name is not applied to a line headed by its entry.
UniProt P41143, whole entry, looked up: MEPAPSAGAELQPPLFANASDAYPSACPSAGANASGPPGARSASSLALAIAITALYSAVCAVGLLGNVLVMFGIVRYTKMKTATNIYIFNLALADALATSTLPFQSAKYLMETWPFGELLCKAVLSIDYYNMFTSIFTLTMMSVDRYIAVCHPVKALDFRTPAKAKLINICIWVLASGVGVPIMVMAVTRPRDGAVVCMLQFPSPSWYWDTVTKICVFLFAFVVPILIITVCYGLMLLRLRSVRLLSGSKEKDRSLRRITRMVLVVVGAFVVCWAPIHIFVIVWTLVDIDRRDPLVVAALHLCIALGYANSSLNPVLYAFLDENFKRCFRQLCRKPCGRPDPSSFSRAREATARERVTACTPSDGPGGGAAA
UniProt P41146: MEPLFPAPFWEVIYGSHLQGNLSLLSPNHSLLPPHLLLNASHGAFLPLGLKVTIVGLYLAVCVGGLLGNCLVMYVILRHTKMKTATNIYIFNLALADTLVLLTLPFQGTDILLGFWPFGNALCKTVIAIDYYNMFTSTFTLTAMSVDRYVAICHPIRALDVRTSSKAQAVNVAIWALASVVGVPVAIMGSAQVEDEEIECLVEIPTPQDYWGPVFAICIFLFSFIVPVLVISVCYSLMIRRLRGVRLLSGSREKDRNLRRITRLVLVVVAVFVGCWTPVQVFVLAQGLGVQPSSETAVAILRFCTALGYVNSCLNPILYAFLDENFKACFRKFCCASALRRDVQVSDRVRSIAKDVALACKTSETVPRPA

What was measured:
DOR = DOR (Homo sapiens, UniProt P41143); assay: Primary binding (PDSP); conditions: for DOR mean % inhibition: 10 μM, N = 4 determinations, negative = stimulation of binding; for DOR: Table 7, rounded values of Table 4
NOP = NOP (Homo sapiens, UniProt P41146); assay: Functional NOP agonism, Tango agonist assay; format: cell-based; conditions: for NOP Tango Agonist: Table 7, values of Table 6; for NOP Tango Agonist, percent efficacy relative to cognate agonist: test compound at 10 micromolar

Row | Compound | DOR mean % inhibition (DOR) [%] | DOR (DOR) | NOP Tango Agonist (NOP) | NOP Tango Agonist, percent efficacy relative to cognate agonist (NOP) [%]
1 | CN(C(=O)c1ccc(Cl)cc1)[C@H](CN1CCCCC1)c1ccccc1 | −3.8126 | −4 | −3.3 | −3.3
2 | CN(C(=O)Cc1ccccc1)[C@@H](CN1CCCCC1)c1ccccc1 | −2.394 | −2 | −2.6 | −2.6
3 | CN1CC(C(=O)N(C)[C@H](CN2CCCCC2)c2ccccc2)CC1=O (stereo partly shown) | 20.9079 | 21 | −3.5 | −3.5
4 | C1CCCC(CN2CCCC[C@H]2CN2CCCC2)CCC1 | −3.894 | −4 | −4.8 | −4.8
5 | CN1CC(C(=O)N[C@H]2CCCC[C@@H]2N2CCCC2)CC1=O (stereo partly shown) | −10.5096 | −11 | −4.9 | −4.9
6 | CN(C(=O)C1CCCN1Cc1ccccc1)[C@H](CN1CCCC1)c1ccccc1 (stereo partly shown) | 4.06 | 4 | −2.8 | −2.8
7 | CN(C(=O)C1CCCN1Cc1ccccc1)[C@H](CN1CCCCC1)c1ccccc1 (stereo partly shown) | −0.757 | −1 | −3.2 | −3.2
8 | CN1CC(C(=O)N2CCCC[C@H]2CN2CCCC2)CC1=O (stereo partly shown) | 8.356 | 8 | −1.2 | −1.2
9 | CN(C(=O)Cc1ccccc1)[C@H](CN1CCCCC1)c1ccccc1 | 5.249 | 5 | −1 | −1
10 | CCn1c(=O)n([C@@H]2CCCC[C@H]2N2CCCC2)c2ccccc21 | 3.265 | 3 | −1.9 | −1.9
11 | Cc1cccc(CC(=O)N(C)[C@@H](CN2CCCCC2)c2ccccc2)c1 | −1.783 | −2 | −1.9 | −1.9
12 | O=C(/C=C/c1ccoc1)N1CCCC[C@H]1CN1CCCC1 | 16.3096 | 16 | −2.6 | −2.6
13 | O=C(Cc1ccc(Cl)c(Cl)c1)N1CCCC[C@H]1CN1CCCC1 | 26.4623 | 26 | −4.4 | −4.4
14 | O=C(CCN1CCC2(CCc3ccccc32)CC1)N[C@H]1CCCC[C@@H]1N1CCCC1 | −8.01 | −8 | −3.6 | −3.6
15 | CN1CC(C(=O)N(C)[C@H]2CCCC[C@@H]2N2CCCC2)CC1=O (stereo partly shown) | −16.8821 |  | −5.2 | −5.2
16 | CN(C(=O)Cc1ccc2occc2c1)[C@@H](CN1CCCCC1)c1ccccc1 | −1.577 | −2 | 1.9 | 1.9
17 | CN(C(=O)Cc1cccc2occc12)[C@@H](CN1CCCCC1)c1ccccc1 | −2.82 | −3 | −0.2 | −0.2
18 | CN1CC(C(=O)N(C)[C@@H](CN2CCCCC2)c2ccccc2)NC1=O (stereo partly shown) | 20.2474 | 20 | −5 | −5
19 | CN(C(=O)Cc1cccc2occc12)[C@H]1CCCC[C@@H]1N1CCCC1 | 21.21 | 21 | −2.6 | −2.6
20 | O=C(NCCCN1CCCC[C@H]1CN1CCCC1)C1CCCN1Cc1ccccc1 (stereo partly shown) | −6.974 | −7 | −3 | −3
